Assays:
[1] = target: recombinant human dipeptidyl peptidase IV (DPPIV) (Homo sapiens (Human), UniProt P27487); test: In vitro IC50 assay, dipeptidyl peptidase IV (Example 15); assay type: biochemical; conditions: read-out: DPPIV IC50; Gly-Pro-AMC, room temperature
[2] = Solubility in water after lyophilization
[3] = Stability in aqueous solution of pH about 3; conditions: during HPLC purification and subsequent lyophilization

Amino acid sequences for entries named in this document (tags omitted).
UniProt P27487, whole entry: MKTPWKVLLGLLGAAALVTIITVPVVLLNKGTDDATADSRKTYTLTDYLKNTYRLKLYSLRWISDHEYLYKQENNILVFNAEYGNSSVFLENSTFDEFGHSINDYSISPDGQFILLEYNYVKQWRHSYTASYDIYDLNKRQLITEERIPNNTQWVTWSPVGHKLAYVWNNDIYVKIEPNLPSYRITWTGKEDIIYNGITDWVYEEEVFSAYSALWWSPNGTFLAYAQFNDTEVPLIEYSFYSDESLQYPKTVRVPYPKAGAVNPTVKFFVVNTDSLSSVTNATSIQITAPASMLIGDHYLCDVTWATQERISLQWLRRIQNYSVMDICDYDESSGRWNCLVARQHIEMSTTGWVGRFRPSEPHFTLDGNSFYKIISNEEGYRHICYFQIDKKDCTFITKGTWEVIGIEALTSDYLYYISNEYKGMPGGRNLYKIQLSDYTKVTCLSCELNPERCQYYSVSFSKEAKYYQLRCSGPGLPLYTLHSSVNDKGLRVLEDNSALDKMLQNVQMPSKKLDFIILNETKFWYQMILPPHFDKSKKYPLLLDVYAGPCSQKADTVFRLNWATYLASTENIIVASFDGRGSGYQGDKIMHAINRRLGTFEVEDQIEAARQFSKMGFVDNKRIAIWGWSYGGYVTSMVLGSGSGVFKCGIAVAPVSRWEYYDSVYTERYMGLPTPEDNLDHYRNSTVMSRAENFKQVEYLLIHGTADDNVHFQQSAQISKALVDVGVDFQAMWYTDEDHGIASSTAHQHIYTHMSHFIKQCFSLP

## C[C@@H](NC(=O)[C@H]1CC[C@H](CNC(=O)CN2CCN(CC(=O)O)CCN(CC(=O)O)CCN(CC(=O)O)CC2)CC1)C(=O)N1CCC[C@H]1B(O)O
[1]
  IC50: > 100 µM
[2]
  solubility in water: > 50 mg/mL
[3]
  degradation in aqueous solution: did not observe any sign of degradation

From patent US11707539B2, “FAP-targeted radiopharmaceuticals and imaging agents, and uses related thereto” (Trustees of Tufts College, priority 2020, dated 2023)
